Measured affinities in a library of Ab-95 light chain variants

Target peptide (SARS-CoV-2 spike, HR2 region): PDVDLGDISGINAS

Parent scFv Ab-95: VH joined to VL by a (GGGGS)3 linker. Changes lie in the light chain CDRs alone.
VH: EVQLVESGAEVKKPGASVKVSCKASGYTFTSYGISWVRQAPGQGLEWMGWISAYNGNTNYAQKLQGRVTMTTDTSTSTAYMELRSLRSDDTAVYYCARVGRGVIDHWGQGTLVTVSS
VL: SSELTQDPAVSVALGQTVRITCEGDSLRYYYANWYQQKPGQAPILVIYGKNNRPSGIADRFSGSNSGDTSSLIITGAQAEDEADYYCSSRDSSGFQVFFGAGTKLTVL

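Library AAYL52 holds single substitutions and randomly drawn double and triple substitutions in the CDRs. The scFvs were displayed on barcoded MATa yeast, the peptide on MATalpha yeast. The frequency of each diploid, read from paired DNA barcodes, reflects how well the two displayed proteins bind. Scores were corrected for input abundance and mapped to Kd with protein pairs of known affinity run in the same pool. Mating was done three times.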

Variants are written as CDR1, CDR2 and CDR3 of the light chain (limits as in the source). Parent: EGDSLRYYYAN, GKNNRPS, SSRDSSGFQVF.
Numbers give log10(Kd / nM), so 0 is 1 nM and 3 is 1 µM. Smaller is tighter.
Replicates are averaged; those with no signal do not enter the mean.
"nd" means that the variant was in the library but no mating with the target was seen in that replicate; the authors take this as a sign of poor binding, and no number exists.
Background: pairings of library AAYL52 with three empty control strains gave a value in 28% of cases (median 3.91, 5th percentile 2.90). Values in that range, when seen in few replicates, are hard to tell from nonspecific mating.

The variant EGDSLRYYYAN, GKNNRPS, SPRDISGFQVF showed 1.97, 2.44, 1.95 (mean 2.12).
The variant LGFSLRYYYAN, GKNNRPS, SSRDSSGFQVE showed 5.48, 4.64, nd (mean 5.06).
The variant EWDSLRYYYAN, GKLNRPS, SSRDSSGFQVW showed nd, 3.96, nd.
The variant EGDLLRYPYAN, GKNNRPE, SSRDSSGFQVF showed 2.59, 2.31, 2.05 (mean 2.32).
The variant ESDSLRYYYAN, GKNNRES, SSFDSSGFQVF showed nd, 3.96, nd.
The variant EGGSLRYYYAN, GKNTRPS, SSRDSRGFQVF showed 3.05, 3.05, 2.39 (mean 2.83).
The variant EGDSLRYYYAN, PKNNRPS, SSRDSSGDLVF showed 4.29, nd, nd.
The variant EGDSLRYYYAI, GPNNRPS, SSRDSTGFQVF showed nd, 3.73, nd.
The variant EGDTLRNEYAN, GKNNRPS, SSRDSSGFQVF showed 1.51, 1.33, 1.14 (mean 1.33).
The variant RGSSLRYYYAN, GKNNRPS, SSRDSSGFQVF showed 1.99, 1.97, 1.52 (mean 1.83).
The variant EGDSLRYYYAL, GKNNRPH, SSRDSVGFQVF showed 3.67, nd, nd.
The variant AGDSLRYYYAN, GKNNRPS, ISRDSSGFEVF showed 3.13, nd, nd.
The variant EGDSLRYYYAN, GKNVHPS, SSRDSSGFQVT showed 2.85, 2.85, 3.99 (mean 3.23).
The variant EHDRLRYYYAM, GKNNRPS, SSRDSSGFQVF showed nd, nd, nd.
The variant EGDSLRYYYAN, GKNMRWS, SSRDSSAFQVF showed 3.91, nd, nd.
The variant EGDLLRYYYAN, GKNNLPS, SSRDSSGFQVF showed 3.38, 3.12, 4.03 (mean 3.51).
The variant EGDSLRYYYAN, GKNNICS, SSRDSDGFQVF showed 5.57, 4.12, 3.69 (mean 4.46).
The variant EGDSLRYYYAN, GKNNRPS, SSRYSAGFQVF showed 2.69, 2.49, 2.18 (mean 2.45).
The variant EGDSLRYYYAQ, GKNNRPW, SSRTSSGFQVF showed 4.04, 3.57, nd (mean 3.80).
The variant EGDSLRELPAN, GKNNRPS, SSRDSSGFQVF showed 1.92, 2.25, 2.07 (mean 2.08).
The variant EGDNLRYYYAN, GKNNKYS, SSRDSSGFQVF showed 3.48, 4.72, 4.40 (mean 4.20).
The variant EGDSLRYKYAN, GTNNRPS, SSRDSSGFGVF showed 3.13, 2.66, 3.48 (mean 3.09).
The variant EGGSLRYYYAN, GKNNRPS, SFRDSSGFQYF showed 3.04, 2.30, 2.10 (mean 2.48).
The variant EGDSLRYYYAN, GKNNRPS, SARDSSVFQVI showed 3.27, 2.59, 2.76 (mean 2.87).

The remaining entries, values ahead:

Result 2.74, 2.42, 2.19 (mean 2.45), variant EGDSLRYYYAN, GKNNRPS, SSRRSSGFHVF.
Result 2.03, 1.96, 2.20 (mean 2.07), variant EGDSHVYYYAN, GKNNRPS, SSRDSSFFQVF.
Result 3.19, 4.00, 2.93 (mean 3.37), variant EGDSLRYTYAN, PKNNRSS, SSRDSSGFQVF.
Result nd, 5.58, nd, variant EGDSLRYYYAN, WKNNGPS, SSRDSSGFSVF.
Result 3.81, 5.83, 3.91 (mean 4.51), variant ERDSLRYYYAM, GKNNRPS, SSRDSSGFQVF.
Result 3.84, nd, nd, variant EGDSLYYYYAN, GENNRPS, SSRCSSGFQVF.
Result nd, nd, nd, variant EGDSLRYYYAV, GKNNRPS, SSRDSYGFQVT.
Result nd, 5.37, 3.51 (mean 4.44), variant EGDSLRYYYYN, GKNNRPQ, ISRDSSGFQVF.
Result 5.36, nd, nd, variant EGDSTRYYYAN, GKNNTPS, SSCDSSGFQVF.
Result nd, nd, nd, variant EGDSERYYYAN, GCNNRPS, SSRDSSRFQVF.
Result 2.53, 1.84, 1.29 (mean 1.89), variant EGDSLRYYYAN, GKNNRPS, SFRDSHGFQVG.
Result 3.44, 3.10, 2.62 (mean 3.05), variant EGDSLRYYYAN, GKNNRPP, SSRDPSGFAVF.
Result 2.30, 2.17, 2.04 (mean 2.17), variant EGDSLRVYYGN, GKNNRPS, SSRSSSGFQVF.
Result 2.35, 2.55, 2.17 (mean 2.36), variant IGDSLRYYYAN, GKNNRPS, NGRDSSGFQVF.
Result 2.09, 3.32, 2.17 (mean 2.53), variant IGDSLRYYCAN, GKNNRPS, SSRDSSGFQWF.
Result 4.47, nd, nd, variant PGDSLRYYYAN, GKYNRPS, CSRDSSGFQVF.
Result 3.72, 3.64, 3.92 (mean 3.76), variant EGDILRYYYAN, GKNNRPS, RWRDSSGFQVF.
Result 3.82, nd, nd, variant EGVSLRVYYAN, GKNNRPS, SSRDSSGFQLF.
Result 3.09, 3.07, nd (mean 3.08), variant EGVSLRYYYAN, GTNNRPS, SSRDSHGFQVF.
Result 3.38, 3.14, 2.46 (mean 2.99), variant EGDSLRYYIAN, GKNNRPS, SSRDSIGCQVF.
Result 3.55, 4.15, 3.28 (mean 3.66), variant ETDSLRYYYAN, GKNNLPS, SSRDSSGFQVF.
Result 3.25, 2.65, nd (mean 2.95), variant EGSSLRYYYAN, GPNNQPS, SSRDSSGFQVF.
Result 2.83, 3.04, 2.80 (mean 2.89), variant EGDPLRYYYAN, GANNRPS, SSRDSSGFQVF.
Result nd, 3.46, 2.92 (mean 3.19), variant EGDSLRYYYAN, GKNNRWS, SSRDCDGFQVF.
Result 1.90, 2.01, 1.54 (mean 1.82), variant EGDSLRYRYAN, GVNNRPS, SSRDSQGFQVF.

Excerpt, the first 4 entries:

{"CDR-L1": "EGDSLRYYYAN", "CDR-L2": "GKNNRPS", "CDR-L3": "SPRDISGFQVF", "log10 Kd, replicates": "1.97, 2.44, 1.95", "log10 Kd (nM), mean": "2.12"}
{"CDR-L1": "LGFSLRYYYAN", "CDR-L2": "GKNNRPS", "CDR-L3": "SSRDSSGFQVE", "log10 Kd, replicates": "5.48, 4.64, nd", "log10 Kd (nM), mean": "5.06"}
{"CDR-L1": "EWDSLRYYYAN", "CDR-L2": "GKLNRPS", "CDR-L3": "SSRDSSGFQVW", "log10 Kd, replicates": "nd, 3.96, nd", "log10 Kd (nM), mean": "3.96"}
{"CDR-L1": "EGDLLRYPYAN", "CDR-L2": "GKNNRPE", "CDR-L3": "SSRDSSGFQVF", "log10 Kd, replicates": "2.59, 2.31, 2.05", "log10 Kd (nM), mean": "2.32"}

From the AlphaSeq antibody data of Engelhart et al. 2022 (doi:10.1038/s41597-022-01779-4), copy in the FLAb collection.